Screening data (PubChem)
A selection: hits, their analogues and other compounds. The true share with any hit is near 1.8%.
RAD52 anneal inh: inhibitors of human RAD52 DNA annealing; P43351; recombinant RAD52 DNA annealing, FRET fluorescence; inhibition, % at 18.7 µM; 360,000 compounds, 0.46% hits;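 active = every replicate showing at least 50% inhibition; inconclusive = mean inhibition at least 50% but not in every replicate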
E-sel inducer: induces E-selectin expression in human endothelial cells | P16581 | HUVEC E-selectin immunofluorescence imaging; normalized: neutral wells 0, TNF-alpha wells 100 | activation, % at 7.58 µM | 260,000 compounds, 0.37% hits | AID 686992;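 active = mean E-selectin-positive cell signal at least 10% of the positive control, reached in at least 60% of replicates, without over 20% cell loss; inconclusive = no rule given, readout overlaps actives, possibly toxicity-flagged; inactive = the rest, including those meeting only one limit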
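System: HUVEC, human umbilical vein endothelial cells; quantity: 3,000 cells/well; buffer or medium: EGM-2 medium, gelatin-coated wells; dosing: single-point compound dose; detection: immunofluorescence imaging; evaluation: % PE-positive cells; benchmarks: TNF-alpha, DMSO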
Yeast UUG start: alters start codon recognition fidelity in yeast. S. cerevisiae UUG-firefly luciferase reporter, luminescence/redox ratio. 350,000 tested, 0.13% active. activity score, % at 18.7 µM. AID 602363;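 active means replicate mean at a twofold rise or more, about +100% in these data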;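 further: firefly luciferase made from a UUG start codon reports start codon fidelity; reporter light over untreated wells divided by growth signal over untreated wells; some hits fall short of that in this replicate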
AF4-AF9 inh: blocks AF4 peptide binding to human AF9. P42568. 350,000 compounds, 0.47% hits. AlphaScreen, biotin-AF4 peptide binding to FLAG-AF9. inhibition, % at 10 µM;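 active = every replicate reaching a set inhibition limit, whatever the replicate mean, cut at about 25% in these data; inconclusive = mean inhibition reaches that limit but some replicates miss it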;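 also: 0% = plate neutral control median and 100% = total signal loss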
SIRT5 inh: inhibitors of human sirtuin-5 desuccinylase | Q9NXA8 | Purified SirT5, succinyl-peptide AMC, trypsin-coupled fluorescence | inhibition, % at 15 µM | 330,000 compounds, 1.1% hits; in the data active = inhibition above about 15%; inconclusive = no clear call, values can overlap the other calls
RAD54 branch: RAD54 (human) branch migration inhibition | Q92698 | RAD54 Holliday junction branch migration, FAM/BHQ fluorescence | inhibition, % at 10.4 µM | 360,000 compounds, 0.14% hits;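 active = mean normalized replicate activity at least 40 and at least half of replicates scoring 40 or more; inconclusive = only one of the two criteria met; inactive = mean below 40 and under half of replicates reaching 40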;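 also: 0% = median of neutral control wells and 100% = median of positive control wells; inhibitors cause a drop in the FAM fluorescence signal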
RAD52 DNA ctr: binds DNA, flagging false RAD52 inhibitor hits | shares compounds with RAD52 anneal inh | Salmon sperm DNA/acridine orange FP displacement, DNA binding | AC50, µM | 1,000 compounds, 8% hits;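 active = fitted half-maximal concentration for signal loss at or below twice the highest dose tested, in every separate run, actives reach about 64 µM in these data; inconclusive = runs disagree, or flat partial signal loss, or poor fit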
Starred values were filed as active, the others as inactive; i = inactive; ? = inconclusive; nt = no result; ! = not active in a repeat.

The opening 2 compounds, to show the layout:
| no. | canonical_smiles | RAD52 DNA ctr | Yeast UUG start | RAD54 branch | RAD52 anneal inh | AF4-AF9 inh | SIRT5 inh | E-sel inducer |
| --- | --- | --- | --- | --- | --- | --- | --- | --- |
| 1 | Cc1cc(C)c2sc(N(CCCN(C)C)C(=O)c3ccc(S(=O)(=O)N(C)Cc4ccccc4)cc3)nc2c1 | nt | -2 | -2 | -35 | 6 | 1 | nt |
| 2 | Cc1ccc2nc(N(CCCN(C)C)C(=O)CN3C(=O)c4ccccc4C3=O)sc2c1 | i | nt | nt | 62* | 19 | -6 | 1 |

This part in full (from the top)
| no. | canonical_smiles | RAD52 DNA ctr | Yeast UUG start | RAD54 branch | RAD52 anneal inh | AF4-AF9 inh | SIRT5 inh | E-sel inducer |
| --- | --- | --- | --- | --- | --- | --- | --- | --- |
| 1 | Cc1cc(C)c2sc(N(CCCN(C)C)C(=O)c3ccc(S(=O)(=O)N(C)Cc4ccccc4)cc3)nc2c1 | nt | -2 | -2 | -35 | 6 | 1 | nt |
| 2 | Cc1ccc2nc(N(CCCN(C)C)C(=O)CN3C(=O)c4ccccc4C3=O)sc2c1 | i | nt | nt | 62* | 19 | -6 | 1 |
| 3 | COC(=O)C[C@@H]1CC[C@@H]2[C@@H](COc3ccc(NC(=O)Nc4ccc(C#N)cc4)cc3C(=O)N2C)O1 | nt | -28 | 8 | -20 | -12 | -3 | 1 |
| 4 | CN(c1ccccc1)S(=O)(=O)c1cccc(C(=O)NC2CC(C)(C)NC(C)(C)C2)c1 | nt | -6 | 6 | -10 | 0 | -3 | 0 |
| 5 | O=C(O)c1ccc(Cl)c(S(=O)(=O)N(Cc2ccccc2)c2ccc(Cl)cc2)c1 | nt | -1 | -1 | -14 | 2 | -7 | 0 |
| 6 | COc1ccccc1N(Cc1ccccc1)S(=O)(=O)c1cccc(C(=O)NC2CC(C)(C)NC(C)(C)C2)c1 | i | nt | nt | 57* | 8 | -4 | -1 |
| 7 | CC1(C)CC(NC(=O)c2ccc(Cl)c(S(=O)(=O)N(Cc3ccccc3)c3ccccc3)c2)CC(C)(C)N1 | i | 13 | 13 | 51* | -4 | -1 | 1 |
| 8 | O=C(N[C@H]1CC[C@H](CCNS(=O)(=O)Cc2ccccc2)O[C@@H]1CO)c1ccccc1F | nt | 11 | 7 | -1 | -3 | 1 | 0 |
| 9 | O=C(NCc1cccc(F)c1)[C@@H]1[C@@H](CO)[C@@H]2Cn3c(cccc3=O)[C@H]1N2 | nt | nt | 4 | -15 | -1 | -1 | 0 |
| 10 | CC(C)CCNCC(O)CON=C1c2ccccc2-c2ccccc21 (stereo unspecified) | i | nt | nt | 66* | 27* | -1 | 0 |
| 11 | COCCNCC(O)CON=C1c2ccccc2-c2ccccc21 (stereo unspecified) | nt | nt | nt | -13 | 1 | -2 | -2 |
| 12 | COc1ccc(-c2[nH]ncc2CN2CCN(c3ccccn3)CC2)c(OC)c1 | nt | -17 | 1 | -18 | 1 | -1 | 1 |
| 13 | COc1ccc(-c2[nH]ncc2CN2CCCCCCC2)c(OC)c1 | i | nt | nt | 76* | 13 | -4 | nt |
| 14 | Cc1cc(N2CCN(C)CC2)nc2ccc(NC(=S)N3CCN(c4ccc(Cl)cc4)CC3)cc12 | i | -28 | 20 | 90* | 18 | -8 | 5 |
| 15 | Cc1cccc(N2CCN(C(=S)Nc3ccc4nc(N5CCN(C)CC5)cc(C)c4c3)CC2)c1C | nt | -27 | 3 | 49 | 5 | -1 | nt |

Just SIRT5 inh, for 2 of the compounds above:
item | Compound | SIRT5 inh
5 | O=C(O)c1ccc(Cl)c(S(=O)(=O)N(Cc2ccccc2)c2ccc(Cl)cc2)c1 | -7
6 | COc1ccccc1N(Cc1ccccc1)S(=O)(=O)c1cccc(C(=O)NC2CC(C)(C)NC(C)(C)C2)c1 | -4

Other records:
| no. | canonical_smiles | RAD52 DNA ctr | Yeast UUG start | RAD54 branch | RAD52 anneal inh | AF4-AF9 inh | SIRT5 inh | E-sel inducer |
| --- | --- | --- | --- | --- | --- | --- | --- | --- |
| 16 | Cc1cc(N2CCN(C)CC2)nc2ccc(NC(=S)N3CCN(c4ccc(F)cc4)CC3)cc12 | nt | -23 | -3 | -6 | -7 | -6 | 0 |
| 17 | Cc1cc(N2CCN(C)CC2)nc2ccc(NC(=S)N3CCCCCC3)cc12 | i | -25 | 18 | 52* | 5 | 20* | 0 |
| 18 | Cc1cc(N2CCN(C)CC2)nc2ccc(NC(=S)N3CCCCC3)cc12 | i | -21 | 43 | 71* | 21 | -1 | 4 |
| 19 | CN1CCN(C2CCN(Cc3ccc(O)c4ncccc34)CC2)CC1 | i | -36 | 16 | 92* | 47* | 1 | 0 |
| 20 | Cc1cccc[n+]1CC(=O)/C=C1\N(C)c2ccccc2C1(C)C | nt | -14 | -11 | -53 | -2 | 7 | nt |
| 21 | CN1/C(=C/C=C/c2n(C)c3cc([N+](=O)[O-])c([N+](=O)[O-])cc3[n+]2C)C(C)(C)c2ccccc21 | 38µM* | 64 | 32 | 61* | 55* | 3 | 3 |
| 22 | CCN(CC)CCn1c2ccccc2c2n[nH]c(=S)nc21 | i | -3 | 24 | 73* | 4 | -1 | 0 |
| 23 | CCN(CC)CCn1c2ccccc2c2nc3ccccc3nc21 | i | -23 | 106* | 89* | 4 | 1 | 4 |
| 24 | Cn1c2ccccc2c2n[nH]c(=S)nc21 | nt | -21 | -9 | -9 | -4 | -4 | nt |
| 25 | CCCn1c2ccccc2c2nc3ccccc3nc21 | nt | -22 | -3 | nt | nt | nt | nt |
| 26 | CCC(=O)N1[C@H](CO)[C@H](c2ccc(-c3cccc(OC)c3)cc2)[C@H]1CNC(C)=O | nt | nt | nt | -16 | -2 | -1 | 1 |
| 27 | COc1ccc(C2c3ccc4ccccc4c3Oc3ncn(CCCN(C)C)c(=N)c32)cc1 (stereo unspecified) | i | -11 | 23 | 80* | 33* | -5 | 0 |
| 28 | COc1ccccc1C1c2ccc3ccccc3c2Oc2ncn(CCN(C)C)c(=N)c21 (stereo unspecified) | i | -4 | 13 | 60* | 18 | -1 | 1 |
| 29 | CCCN1[C@H](CO)[C@H](c2ccc(C#Cc3ccccc3)cc2)[C@@H]1CNC1CCCC1 | nt | nt | nt | 14 | 9 | 1 | ? |
| 30 | CN(C)C(=O)C[C@@H]1C[C@H]2c3cc(NC(=O)c4ccc5c(c4)OCO5)ccc3O[C@H]2[C@@H](CO)O1 | nt | 5 | 2 | -4 | -2 | -5 | -1 |

Results in sequence from above:
Entries 17–22 in AF4-AF9 inh, in turn: 5, 21, 47*, -2, 55*, 4
Entries 17–22 in RAD54 branch, in turn: 18, 43, 16, -11, 32, 24

Later entries:
| no. | canonical_smiles | RAD52 DNA ctr | Yeast UUG start | RAD54 branch | RAD52 anneal inh | AF4-AF9 inh | SIRT5 inh | E-sel inducer |
| --- | --- | --- | --- | --- | --- | --- | --- | --- |
| 31 | CCN1CCN(Cc2ccc(NC(=O)c3cc(NC(=O)c4cnnc5ccccc45)cc(OC)c3)cc2C(F)(F)F)CC1 | i | 23 | 22 | 70*! | 23 | 2 | 0 |
| 32 | CCN1CCN(Cc2ccc(NC(=O)c3cc(NC(=O)c4cncc(-c5ccc(C#N)cc5)c4)cc(OC)c3)cc2C(F)(F)F)CC1 | i | 9 | 5 | 87* | 5 | nt | 0 |
| 33 | CCN1CCN(Cc2ccc(NC(=O)c3ccc(C)c(NC(=O)c4cc(-c5ccc(Br)cc5)n[nH]4)c3)cc2C(F)(F)F)CC1 | nt | -6 | -3 | -17 | 3 | 2 | 1 |
| 34 | Cc1ccc(S(=O)(=O)Nc2ccc3c(c2)C(=O)N([C@@H](C)CO)C[C@H](C)[C@H](CN(C)Cc2ccc(C(=O)O)cc2)OCCCC[C@H](C)O3)cc1 | nt | 11 | 7 | 17 | 0 | -1 | nt |
| 35 | CN1CCN(CCCN2c3ccccc3Sc3ccc(C(F)(F)F)cc32)CC1 | i | 5 | 21 | 50*! | 27*! | -8 | 0 |
| 36 | O=C(CN1CCCC(O)C1)N1c2ccccc2Sc2ccc(C(F)(F)F)cc21 (stereo unspecified) | nt | 0 | -2 | nt | nt | nt | nt |
| 37 | O=C(O)C[C@H]1C[C@H]2c3cc(NS(=O)(=O)c4ccccc4)ccc3O[C@H]2[C@H](CO)O1 | nt | nt | nt | -7 | -1 | 0 | 0 |
| 38 | COc1cc(/C=C/c2cc[n+](C)cc2)ccc1OCC(=O)Nc1ccc(Cl)c(Cl)c1 | i | 21 | -3 | 69* | ? | -3 | nt |
| 39 | CCCCc1nc2sc3c(SCCN(C)C)ncnc3c2c2c1CCC2 | i | nt | nt | 60* | 15 | -6 | nt |
| 40 | C[C@@H]1CCCCO[C@H](CN(C)S(C)(=O)=O)[C@H](C)CN([C@@H](C)CO)C(=O)c2cc(NC(=O)CCC(F)(F)F)ccc2O1 | nt | nt | nt | nt | nt | nt | 0 |
| 41 | O=C(C[C@@H]1C=C[C@@H](NC(=O)C2CCC2)[C@H](CO)O1)NC1CCCCC1 | nt | -20 | -4 | 13 | -12 | -1 | 0 |
| 42 | CN=C(C[N+](=O)[O-])NCCSCc1ccc(CN(C)C)o1 | i | -15 | -18 | 57* | 7 | -1 | 0 |
